What all share (assay): Ellman assay, probit analysis
Settings in all cases: read-out: I50; covalent; crude homogenate; 30 min preincubation at 25 °C; acetylthiocholine substrate, pH 7.4

In test [1] the test system is Plutella xylostella AChE.
In test [2] the test system is Phyllotreta striolata AChE.
Test [3] has as its system Propylea japonica AChE.
The test system of test [4] is Prodenia litura AChE.
For test [5], the system named is Cotesia plutellae AChE.
The test system of test [6] is Pteromalus puparum AChE.

Data on 2 compounds can be found in publication PMC10531824.

For the compound `CCOP(=O)(OCC)Oc1ccc([N+](=O)[O-])cc1`, the IC50 came to 5880 nM in test [1]; 327 nM in test [2]; 98.5 nM in test [3]; 446 nM in test [4]; 72.1 nM in test [5]; 77.7 nM in test [6].
`CCOC(=O)CC(SP(=O)(OC)OC)C(=O)OCC` (stereo not drawn): the IC50 in test [1] is 10600 nM; in test [2], 1730 nM; in test [3], 942 nM; in test [4] it was 1400 nM; in test [5] it was 521 nM; in test [6], 388 nM.
